Apparent affinities of Ab-14 variants for a coronavirus HR2 peptide

Target peptide (SARS-CoV-2 spike, HR2 region): PDVDLGDISGINAS

Each scFv is VH, three GGGGS repeats, VL, as in the parent Ab-14, and differs from it in the CDRs of the heavy chain only.
VH: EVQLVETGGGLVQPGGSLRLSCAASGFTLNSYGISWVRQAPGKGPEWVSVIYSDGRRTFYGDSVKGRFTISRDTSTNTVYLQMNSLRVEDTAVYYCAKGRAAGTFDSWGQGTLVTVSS
VL: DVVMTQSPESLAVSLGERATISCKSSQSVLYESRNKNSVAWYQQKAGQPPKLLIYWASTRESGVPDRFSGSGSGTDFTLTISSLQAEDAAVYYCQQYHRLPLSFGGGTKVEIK

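This is the validation round: designs drawn from the data on random variants, tested in the same kind of assay. Group labels follow the data file (Rand: our label for a block that the file lists under HC and that is probably the random mutants of the ten best first-round binders; En: ensemble of fine-tuned language models; HC: hill climbing; Gen: genetic algorithm; Gibbs: Gibbs sampling; a sequence that several methods proposed may carry one label only). AlphaSeq pools MATa yeast showing the antibodies with MATalpha yeast showing the peptide. Pairs that bind mate more often; barcode pairs of the diploids are counted by sequencing. Read counts were normalised to the haploid input and turned into Kd by a linear fit to BCL2-family pairs of known affinity, for each replicate. Each pool was mated in six replicate cultures.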

Variants are written as CDR1, CDR2 and CDR3 of the heavy chain (limits as in the source). Parent: GFTLNSYGIS, VIYSDGRRTFYGDSVK, GRAAGTFDS. This list holds designs with more than six substitutions. Kd is apparent (estimated from mating counts) and averaged on the log scale over replicates with a signal. Smaller is tighter. An entry "no signal" has no value in the source: the pair was not observed among the diploids in any replicate. This suggests poor binding but is not conclusive.

The variant GFDLDEYGIS | VIYADGKRTAYSDSVK | GNTAGTFDL [En_Gen] showed 1.5 nM (6 of 6 replicates). The variant GFALDEYGIS | VIYADGSRSAYTSSVK | GVHNGDINI [En_Gibbs] gave no signal (0 of 6 replicates). The variant GFDLREMGIS | VIYADGRRVAYNDKVK | GELTGTFDQ [En_Gibbs] gave 210 nM (2 of 6 replicates). The variant GFDLDEYGIS | VIYADGVRTAYTDSVK | GNVAGTFDQ [En_Gen] showed 420 pM (6 of 6 replicates). With GFDLNEYGIS | VIYADGKRTAYSDNVK | GNVAGTFDV [En_Gen] the result was 3.8 nM (1 of 6 replicates). For GFDLEEYGIS | VIYADGLRSYYDDNFK | GWNSGTIFV [En_Gibbs], the assay gave no signal (0 of 6 replicates). The variant GFDLEDYGIS | VIYADGKRTAYSDSVK | GENAGTFDV [En_Gen] gave 3.0 nM (6 of 6 replicates). With GFDLDEYGIS | VIYADGLRTAYSDSVK | GENAGTFDV [En_Gen] the result was 5.6 nM (6 of 6 replicates).

For GFDLNEYGIS | VIYADGRRTFYADSVK | GQNAGTFDV [En_Gen], the assay gave 530 pM (6 of 6 replicates). With GFDLNEYGIS | VIYADGKRTAYTDSVK | GENAGTFDV [En_Gen] the result was 87 pM (6 of 6 replicates). For GFGLDEYGIS | VIYADGFRTFYADSVK | GENAGTFDM [En_HC], the assay gave 71 pM (5 of 6 replicates). For GFDINEYGIS | VIYADGRRTAYADSVK | GENAGTFDS [En_HC], the assay gave 740 pM (6 of 6 replicates). For GFDIMEYGVS | VIYADGVRTAYSQDVK | GFNLDLYTD [En_Gibbs], the assay gave no signal (0 of 6 replicates). For GFSLDEYGIS | VIYADGRRTAYQDDVK | GNVAGTFDS [En_HC], the assay gave 2.0 nM (6 of 6 replicates). For GFDLQEYGIS | VIFADGLRSAYSDKVK | GQINGYFVV [En_Gibbs], the assay gave 87 nM (1 of 6 replicates). For GFDLEDYGIS | VIYADGRRTAYADSVK | GNVAGTFDV [En_Gen], the assay gave 160 pM (6 of 6 replicates).

The variant GFDLNEYGIS | VIYADGKRTAYVDSVK | GNNAGTFDV [En_Gen] showed 760 pM (6 of 6 replicates). The variant GFDLNEYGIS | VIYADGKRTAYVDKVK | GNVAGTFDV [En_Gen] gave 420 pM (6 of 6 replicates). The variant GFDLNEYGIS | VIYADGMRTAYSDKVK | GTNAGTFDV [En_Gen] gave 160 pM (6 of 6 replicates). The variant GFDLSEYGIS | VIYADGVRTAYADSVK | GENAGTFDV [En_Gen] showed 180 nM (2 of 6 replicates). The variant GFDLNEYGIS | VIYADGKRTAYADSVK | GETAGTFDI [En_Gen] gave 770 pM (6 of 6 replicates). The variant GFDLNEYGIS | VIYADGMRTAYADSVK | GNNGGTFDV [En_Gen] showed 4.7 nM (6 of 6 replicates). The variant GFDLNEYGIS | VIYADGKRTFYADSVK | GTNGGTFDV [En_HC] gave 890 pM (6 of 6 replicates). The variant GYDLNEYGIS | VIYADGNRNAYANNFK | GLHNGFFII [En_Gibbs] gave no signal (0 of 6 replicates).

For GFDLGEYGIS | VIYADGMRSAYTDQVK | GKGANIVKH [En_Gibbs], the assay gave no signal (0 of 6 replicates). For GFDLNEYGIS | VIYADGRRTFYHDSVK | GNLAGTFDQ [En_HC], the assay gave 150 pM (6 of 6 replicates). The variant GFDLNNYGIS | VIYADGLRVQYENKVK | GDVAGTFDS [En_Gibbs] gave 390 pM (6 of 6 replicates). The variant GFTLNSCGIS | VIYSDGMRTFYSDSVK | KRAGRTKDS [Rand] gave no signal (0 of 6 replicates). With GFDLNEYGIS | VIYADGRRTFYSDSVK | GQSAGTFDA [En_HC] the result was 660 pM (6 of 6 replicates). With GFGLNEYGIS | VIYADGQRKFYADNVK | GVFGSLGQV [En_Gibbs] the result was no signal (0 of 6 replicates). With GFNLDEYGVS | VIYADGKRCQYTNNVK | GENAGFFML [En_Gibbs] the result was no signal (0 of 6 replicates). For GFDLNEYGIS | VIYADGKRTAYADSVK | GETAGTFDL [En_Gen], the assay gave 630 pM (6 of 6 replicates).

With GFFLDEYGIS | VIYADGIRTAYKDKVK | GDDILLGWF [En_Gibbs] the result was 1.0 nM (6 of 6 replicates). With GFDINEYGIS | VIYADGRRTFYADSVK | GQNAGTFDV [En_HC] the result was 1.1 nM (6 of 6 replicates). The variant GFDLNEYGIS | VIYADGRRTQYIDSVK | GNVAGTFDV [En_HC] showed 910 pM (6 of 6 replicates). With GFDLNEYGIS | VIYADGRRTFYTDSVK | GQIAGTFDV [En_HC] the result was 760 pM (6 of 6 replicates). For GFDLDEYGIS | VIYADGSRTAYADSVK | GNNAGTFDI [En_Gen], the assay gave 1.9 nM (6 of 6 replicates). The variant GFDLNEYGIS | VIYADGMRTAYADDVK | GTNAGTFDV [En_Gen] showed 95 pM (5 of 6 replicates). The variant GFDLDEYGIS | VIYADGKRTAYQDSVK | GNVAGTFDV [En_Gen] gave 310 pM (6 of 6 replicates).

Excerpt, the first 3 entries:

| CDR-H1 | CDR-H2 | CDR-H3 | group | Kd | replicates with signal |
|---|---|---|---|---|---|
| GFDLDEYGIS | VIYADGKRTAYSDSVK | GNTAGTFDL | En_Gen | 1.5 nM | 6/6 |
| GFALDEYGIS | VIYADGSRSAYTSSVK | GVHNGDINI | En_Gibbs | no signal | 0/6 |
| GFDLREMGIS | VIYADGRRVAYNDKVK | GELTGTFDQ | En_Gibbs | 210 nM | 2/6 |

The authors' rule: three or more of the six replicates give a measured affinity, fewer mean a poor binder. Of ten entries with the parent sequence, four were seen in most replicates (averages 2.2 nM to 240 nM), three in one and three in none, so single entries are noisy. Values of this round are not directly comparable with the first-round values of the same sequences. Empty control strains, which show no peptide, gave a signal in 1% of pairings with all heavy chain designs; the median was 120 nM and 95% of these signals were weaker than 7.0 nM. No background was subtracted.

Reference: Li et al. 2023, doi:10.1038/s41467-023-39022-2. File: FLAb, binding data.